# Assay results: patent publication US20040096815A1, “Method of identifying an eventual modification of at least one biological parameter making use of living cells which are subjected to a stress and living cells which are not subjected to this same stress” (COLETICA, priority 2002, published 2004)
# Tested on: pigmented reconstructed skins
# Conditions: solar irradiation 561 KJ/m^2 twice per week for two weeks; 8 μl cosmetic formulation with active at 3%, 10 days
substance,measurement,value
Hesperitine Laurate [Flavagrum ®],"MTT cellular viability, percentage with respect to the non-irradiated control",88%
